Measurements as given in paper PMC9266460, “KSK-74: Dual Histamine H3 and Sigma-2 Receptor Ligand with Anti-Obesity Potential” (International Journal of Molecular Sciences, 2022).

Protein sequences, listed by entry. Tags and fused reporters are not part of them. Lines headed by an entry give the natural chain unless they say otherwise; changes in a name come on top.
UniProt Q9Y5N1: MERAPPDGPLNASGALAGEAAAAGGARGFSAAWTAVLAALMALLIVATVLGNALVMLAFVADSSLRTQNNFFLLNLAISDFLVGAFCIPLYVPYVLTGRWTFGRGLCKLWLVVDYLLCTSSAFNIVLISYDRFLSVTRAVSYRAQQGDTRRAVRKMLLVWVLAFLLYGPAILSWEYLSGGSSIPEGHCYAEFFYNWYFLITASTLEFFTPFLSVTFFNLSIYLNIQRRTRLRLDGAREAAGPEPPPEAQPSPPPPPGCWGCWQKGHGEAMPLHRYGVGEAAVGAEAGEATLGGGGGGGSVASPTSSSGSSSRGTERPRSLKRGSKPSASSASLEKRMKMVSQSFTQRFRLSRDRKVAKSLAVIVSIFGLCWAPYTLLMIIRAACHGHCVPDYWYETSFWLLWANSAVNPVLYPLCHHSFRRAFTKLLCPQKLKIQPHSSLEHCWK

Target: H3 histamine receptor (Homo sapiens, UniProt Q9Y5N1)
Experiment: Intrinsic activity at H3R, Aequoscreen assay
Type: cell-based
Experimental: Intrinsic activity studies were performed using two methods, Aequoscreen and LANCE Ultra cAMP assays, according to the manufacturer of the ready-to-use cells with stable expressions of the H3 histamine receptor (Perkin Elmer).
The Aequoscreen technology uses recombinant cell lines with stable co-expression of apoaequorin and a GPCR as a system to detect activation of the receptor, following the addition of an agonist, via the measurement of light emission. For the measurement, cells (frozen, ready to use) were thawed and resuspended in 10 mL of assay buffer containing 5 μM of coelenterazine h. The cell suspension was then placed in a 10 mL Falcon tube, fixed on a rotating wheel, and incubated overnight at RT° in the dark. Cells were diluted with assay buffer at 5000 cells/20 µL. Agonistic ligands 2 × (50 μL/well), diluted in assay buffer, were prepared in 1/2 area white polystyrene plates, and 50 μL of cell suspension was dispersed on the ligands using the injector. The light emission was recorded for 20 s. Cells were incubated with antagonist for 15 min at RT°. Then, 50 µL of agonist (final concentration equal to 3 × EC80) was injected into the mixture of cells and antagonist and light emission was recorded for 20 s.

NC(=NCc1ccc(Cl)cc1)SCCCc1cnc[nH]1 [Clobenpropit, clobenpropit, reference compound]
IC50: 1.1 ± 0.3 nM
